{"source": "patent US11198705B2", "about": "“Hybrid Amphotericin B derivatives with reduced toxicity” (priority 2018, dated 2021)", "key": {"Cmax in rats": {"experiment": "Cmax in rats", "assay_type": "in vivo", "conditions": "C2′epiAmB at 17.5 mg/kg vs AmB at 1 mg/kg"}, "[1]": {"experiment": "IV toxicity in rats (BUN, ALT/AST, mortality)", "conditions": "rats, 2, 10, and 17.5 mg/kg (highest dose tested)"}}}
{"smiles": "C[C@@H]1[C@H](O)[C@@H](C)/C=C/C=C/C=C/C=C/C=C/C=C/C=C/[C@H](O[C@@H]2O[C@H](C)[C@@H](O)[C@H](N)[C@H]2O)C[C@@H]2O[C@](O)(C[C@@H](O)C[C@@H](O)[C@H](O)CC[C@@H](O)C[C@@H](O)CC(=O)O[C@H]1C)C[C@H](O)[C@H]2C(=O)O", "note": "[C2′epiAmB]", "values": [{"measurement": "Cmax relative to Cmax for AmB", "setting": "Cmax in rats", "value": "> 16", "unit": "fold"}, {"measurement": "BUN, ALT/AST and mortality", "setting": "[1]", "value": "no elevations in BUN or ALT/AST and no mortality"}]}
